Assay results as given in ChEMBL document CHEMBL5726813, “Kinase inhibitors and method of treating cancer” (2018).

Sequences of proteins named here, by UniProt entry; tags and fusion partners are left off.
UniProt P36888, whole entry: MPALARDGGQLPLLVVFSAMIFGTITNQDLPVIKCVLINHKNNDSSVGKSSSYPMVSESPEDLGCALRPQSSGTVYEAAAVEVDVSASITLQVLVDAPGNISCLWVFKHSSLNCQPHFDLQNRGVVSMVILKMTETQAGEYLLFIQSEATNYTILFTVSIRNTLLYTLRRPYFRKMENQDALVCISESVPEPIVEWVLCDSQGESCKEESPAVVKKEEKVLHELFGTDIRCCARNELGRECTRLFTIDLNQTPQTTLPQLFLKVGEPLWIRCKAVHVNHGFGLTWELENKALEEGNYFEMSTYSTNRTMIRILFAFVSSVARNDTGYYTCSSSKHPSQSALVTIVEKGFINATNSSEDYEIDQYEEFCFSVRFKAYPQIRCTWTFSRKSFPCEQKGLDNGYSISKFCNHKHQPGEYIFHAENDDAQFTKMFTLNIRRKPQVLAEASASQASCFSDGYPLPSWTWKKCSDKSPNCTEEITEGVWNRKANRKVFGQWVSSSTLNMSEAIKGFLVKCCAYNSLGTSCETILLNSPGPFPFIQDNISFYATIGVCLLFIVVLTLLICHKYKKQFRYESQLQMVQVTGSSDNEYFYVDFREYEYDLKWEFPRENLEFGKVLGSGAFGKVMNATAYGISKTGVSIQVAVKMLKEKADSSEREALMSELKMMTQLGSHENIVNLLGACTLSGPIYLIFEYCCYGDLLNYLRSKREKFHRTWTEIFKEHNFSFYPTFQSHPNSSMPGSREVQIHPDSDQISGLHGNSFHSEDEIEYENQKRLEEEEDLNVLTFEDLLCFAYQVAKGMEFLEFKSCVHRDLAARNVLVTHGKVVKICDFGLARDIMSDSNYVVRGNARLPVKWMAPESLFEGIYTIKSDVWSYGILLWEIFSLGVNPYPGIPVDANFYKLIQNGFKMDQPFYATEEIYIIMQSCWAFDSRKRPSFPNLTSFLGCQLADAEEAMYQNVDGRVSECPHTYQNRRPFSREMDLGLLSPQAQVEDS

Target: Receptor-type tyrosine-protein kinase FLT3 (Homo sapiens, UniProt P36888)
Test: Inhibition Assay: The enzymatic activity of FLT3 was determined using the Z-Lyte assay kit from Invitrogen (Invitrogen cat #PV3191). The assay was performed using the recommended manufacturer's instructions with 117.5 uM ATP and 1 nM FLT3 (Invitrogen cat #PV3182). The % inhibition values were determined according to the manufacturer's directions and IC50 values were obtained using a non-linear 4 point logistic curve fit (XLfit4, IDBS).

SMILES: COc1ccc2c(c1)[C@]1(C[C@H]1c1ccc3c(C#Cc4ccc(CN5CCOCC5)cc4)n[nH]c3c1)C(=O)N2 (relative stereo)
- IC50: in the range around 550 nM
